The source of these data is PubChem BioAssay AID1325 (NMMLSC, 2008).

By UniProt entry, the sequences of proteins in these tests, tags left out. Where a name states a change or a piece, a line headed by the entry shows the natural chain unless it says otherwise.
UniProt Q9UNQ0: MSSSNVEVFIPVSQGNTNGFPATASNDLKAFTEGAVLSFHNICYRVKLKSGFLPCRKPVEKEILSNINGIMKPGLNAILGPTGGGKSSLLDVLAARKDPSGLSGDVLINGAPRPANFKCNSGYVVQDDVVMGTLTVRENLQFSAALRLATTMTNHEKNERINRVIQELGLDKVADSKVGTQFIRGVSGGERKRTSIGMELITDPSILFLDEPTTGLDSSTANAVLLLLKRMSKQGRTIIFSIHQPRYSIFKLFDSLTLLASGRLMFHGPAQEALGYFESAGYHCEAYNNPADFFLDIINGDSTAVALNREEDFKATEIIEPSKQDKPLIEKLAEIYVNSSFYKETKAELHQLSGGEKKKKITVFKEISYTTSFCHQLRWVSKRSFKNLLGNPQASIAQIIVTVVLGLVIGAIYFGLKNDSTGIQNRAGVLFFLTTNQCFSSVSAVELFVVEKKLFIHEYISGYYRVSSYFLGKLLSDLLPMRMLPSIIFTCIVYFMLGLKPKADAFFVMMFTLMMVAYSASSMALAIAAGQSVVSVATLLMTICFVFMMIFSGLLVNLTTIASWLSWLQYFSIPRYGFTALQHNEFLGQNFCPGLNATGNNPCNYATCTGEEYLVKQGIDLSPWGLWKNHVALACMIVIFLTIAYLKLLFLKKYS

This is a selection; strong and weak results do not stand in their true shares. The source made the active and inactive calls.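 The calls were made as follows: active = inhibition above 80%; inactive = the rest.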

The assay addresses Broad substrate specificity ATP-binding cassette transporter ABCG2 (Homo sapiens) (UniProt Q9UNQ0). Nature of the assay: blockers of JC-1 export by ABCG2 – multiplex with ABCB1, IgMXP3 cells, flow cytometry, primary screen (AID 1325).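 Also: 0% = DMSO and 100% = nicardipine control wells.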 The conditions noted are these: JC-1 efflux, at 6.6 µM, hits give high values. Background: A flow cytometer gives signals particle by particle.
Consider `Cc1ccc2nc3c(c(C)c2c1)CC(C(Cl)Cl)S3` (centres undefined), for which the inhibition (as a rule, the drop in the measured response relative to a control, in per cent) is inactive: 2.71%.

Turning to `CC(C)NC(=O)NP(=O)(Oc1ccccc1)Oc1ccccc1`, the inhibition was inactive: -3.34%.

In the case of `CCN(CC)C(=S)SC(NC=O)C(Cl)(Cl)Cl` (centres undefined), the inhibition is inactive: 1.19%.

`O=[N+]([O-])c1cc([N+](=O)[O-])c(-c2ccn[nH]2)s1`: the inhibition is inactive: 7.28%.

`ClCCSc1nnc(-c2cccnc2)o1`: the inhibition was inactive: 1.97%.

Regarding `COc1ccc2nc(NP(=O)(c3ccccc3)c3ccccc3)sc2c1`, the inhibition was inactive: 2.75%.

As for `O=C(OC1CN2CCC1CC2)C12CC3CC(CC(C3)C1)C2` (centres undefined), the inhibition was inactive: 0.16%.

Turning to `Cc1cc(=O)[nH]c(N[N+](=O)[O-])n1`, the inhibition is inactive: 0.16%.

`Cc1c2c(nc3ccccc13)SC(C(Cl)Cl)C2` (centres undefined): the inhibition was inactive: 8.63%.

Turning to `COc1ccc(N/C(=N/P(=O)(N2CCOCC2)N2CCOCC2)N2CCOCC2)cc1`, the inhibition is inactive: 0.97%.

As to `O=C(COc1ccccc1)OC1CN2CCC1CC2` (centres undefined), the inhibition was inactive: 1.98%.

For `COP1(=S)c2c(C)nn(CCC#N)c2N=C(c2ccc(F)cc2)N1C` (centres undefined), the inhibition is inactive: 8.75%.

Turning to `CCC(C)N(CC(C)C)C(=S)SC(NC(C)=O)C(Cl)(Cl)Cl` (centres undefined), the inhibition is inactive: 1.72%.

As for `Cc1cc(SC(NC(=O)c2ccccc2)C(Cl)(Cl)Cl)nc(C(C)C)n1` (centres undefined), the inhibition is inactive: -2.52%.

For `Cc1cc(SC(NC=O)C(Cl)(Cl)Cl)ncn1` (centres undefined), the inhibition was inactive: 6.73%.

As to `O=P(Nc1ccccn1)(c1cccc2ccccc12)c1cccc2ccccc12`, the inhibition was inactive: -0.68%.

For the compound `CN(C)C1(CNC(=O)c2ccc(S(C)(=O)=O)cc2)CCCCC1`, the inhibition was inactive: 2.53%.

As to `Cc1nn(-c2ccccc2)c2c1P(=O)(N1CCOCC1)N(C)C(c1ccccc1)=N2` (centres undefined), the inhibition was inactive: 1.1%.

`CC1CCC(C(C)C)C(OP(=O)(Nc2ccccn2)c2ccccc2)C1` (centres undefined): the inhibition is inactive: 3.14%.

For `Cc1ccc(OCC(=O)OC2CN3CCC2CC3)cc1` (centres undefined), the inhibition was inactive: -0.31%.

Consider `O=P1(Nc2ccc(Br)cn2)COc2ccccc2OC1`, for which the inhibition is inactive: 0.52%.

With `O=P1(Nc2ncccn2)COc2ccccc2OC1`, the inhibition was inactive: 1.54%.

Consider `Clc1n[nH]nc1-c1nn[nH][15n]1`, for which the inhibition was inactive: -5.45%.

With `O=P1(Nc2ccccn2)COc2ccccc2OC1`, the inhibition is inactive: 9.57%.

For `CN(C(=O)Cc1ccc(Cl)c(Cl)c1)[C@@H]1CCCC[C@H]1N1CCCC1`, the inhibition was inactive: -1.6%.

`CC(C)/C=N\N=C(\N)N[N+](=O)[O-]`: the inhibition is inactive: -1.19%.

As for `Cc1cccc(OCC(=O)OC2CN3CCC2CC3)c1` (centres undefined), the inhibition is inactive: -2.32%.

For `COc1cc(C(=O)NCC2(N3CCOCC3)CCCCC2)cc(Cl)c1OC(C)C`, the inhibition is inactive: 3.98%.

Regarding `COc1cc(C2NCCC3(OCCO3)C2(C)C)cc(OC)c1OC` (centres undefined), the inhibition is inactive: 70%.

For `CCOP(=O)(Nc1cccc2ccccc12)OCC`, the inhibition is inactive: -0.08%.

For the compound `Cc1ccc(NCCc2c([N+](=O)[O-])cc([N+](=O)[O-])cc2[N+](=O)[O-])cc1`, the inhibition was inactive: 14.9%.

Turning to `CCOP1(=S)c2c(C)nn(CCC#N)c2N=C(c2ccccc2F)N1C` (centres undefined), the inhibition was inactive: 1.45%.

As to `O=P(Nc1nccs1)(Oc1ccccc1)Oc1ccccc1`, the inhibition is inactive: 2.45%.

For `O=P(Nc1nccs1)(c1ccccc1)c1nc2ccccc2s1` (centres undefined), the inhibition is inactive: 2.49%.

As to `O=[N+]([O-])c1ccc2c(c1)nnn2O`, the inhibition is inactive: 1.49%.

As to `CCOP1(=S)c2c(C)nn(CCC#N)c2N=C(c2ccc(F)cc2)N1C` (centres undefined), the inhibition is inactive: -1.37%.

Consider `O=C(NC1CCS(=O)(=O)C1)NP(=S)(Oc1ccccc1)Oc1ccccc1` (centres undefined), for which the inhibition is inactive: 4.61%.

For the compound `CCNC(=S)/N=C(\N)N[N+](=O)[O-]`, the inhibition is inactive: 4.55%.

For `c1ccc(-c2nn[nH]n2)c(-c2nn[nH]n2)c1`, the inhibition was inactive: 0.48%.

With `CCOC(=O)NC(Sc1ccccc1)C(Cl)(Cl)Cl` (centres undefined), the inhibition is inactive: 1.79%.

Consider `O=c1c2cc([N+](=O)[O-])ccc2[nH]c2c([N+](=O)[O-])cc([N+](=O)[O-])cc12`, for which the inhibition is inactive: 1.69%.

Turning to `COC(=O)c1cc2c(s1)N=C(c1ccccc1)N(C)P2(=O)N1CCOCC1` (centres undefined), the inhibition was inactive: -1.74%.

On to `CC(=O)NC(SC(=S)N(CC(C)C)CC(C)C)C(Cl)(Cl)Cl` (centres undefined), for which the inhibition is inactive: 1.42%.

In the case of `Cc1ccc(OP(=O)(Nc2ccccn2)Oc2ccc(C)cc2)cc1`, the inhibition is inactive: 1.04%.

`CCC(=O)N1C2C3N(C(=O)CC)C1C1N(C(=O)CC)C(C(N1C(=O)CC)N3C(=O)CC)N2C(=O)CC`: the inhibition is inactive: 0.85%.

Consider `CC(C)(C)C(=O)NC(Sc1ccccc1)C(Cl)(Cl)Cl` (centres undefined), for which the inhibition was inactive: 0.89%.

In the case of `O=P1(Nc2nc3ccc(Cl)cc3s2)COc2ccccc2O1` (centres undefined), the inhibition is inactive: 1.1%.

`CCOc1ccc(C2=NCC(CBr)S2)cc1` (centres undefined): the inhibition is inactive: 1.65%.

For `CC(=O)Nc1ccc(Oc2c([N+](=O)[O-])cc([N+](=O)[O-])cc2[N+](=O)[O-])cc1`, the inhibition was inactive: 5.14%.

For `c1nnnn1CCn1cnnn1`, the inhibition is inactive: 2.76%.

Consider `O=P(Nc1nccs1)(c1ccccc1)c1ccccc1`, for which the inhibition is inactive: 1.4%.

As to `CC(C)C(=O)NC(Sc1ccccc1)C(Cl)(Cl)Cl` (centres undefined), the inhibition is inactive: 3.94%.

On to `O=P(Nc1ccccn1)(c1ccc(Br)cc1)c1ccc(Br)cc1`, for which the inhibition was inactive: 1.16%.

In the case of `C(Cc1nn[nH]n1)Cc1nn[nH]n1`, the inhibition is inactive: -3.17%.

In the case of `O=C(OC1CN2CCC1CC2)c1cccc(Cl)c1` (centres undefined), the inhibition was inactive: 3.42%.

Regarding `CC(=O)NC(SC(=S)N(C)C)C(Cl)(Cl)Cl` (centres undefined), the inhibition is inactive: 18.2%.

Turning to `O=[N+]([O-])c1ncn(CCn2ncnc2[N+](=O)[O-])n1`, the inhibition was inactive: 10.1%.

With `CC(=O)N1C2C3N(C(C)=O)C1C1N(C(C)=O)C(C(N1C(C)=O)N3C(C)=O)N2C(C)=O`, the inhibition is inactive: -0.2%.

On to `O=[N+]([O-])c1cccc2n[nH]nc12`, for which the inhibition is inactive: 2.43%.

With `Cc1ccc(NP(=O)(Oc2ccccc2)Oc2ccccc2)nc1`, the inhibition was inactive: -0.4%.

Take `O=[N+]([O-])c1cc([N+](=O)[O-])c(CCNc2ccccc2)c([N+](=O)[O-])c1`: the inhibition is inactive: 2.72%.

For the compound `CCc1nc2c(n1)c1c(non1O)c1c2no[n+]1[O-]`, the inhibition is inactive: 2.01%.

Consider `COc1ccc(C2=NCC(CBr)S2)cc1` (centres undefined), for which the inhibition is inactive: -0.34%.

On to `CC(C)=N/N=C(\N)N[N+](=O)[O-]`, for which the inhibition was inactive: 0.63%.

As to `CN(C)C(=O)OCCc1n(C)cc[n+]1C`, the inhibition is inactive: -1.46%.

In the case of `CC1CCN(C(=O)Oc2c(Cl)cc(Cl)c3cccnc23)CC1`, the inhibition is inactive: 4.62%.

As for `CCN(/C(=N/P(=O)(N1CCOCC1)N1CCOCC1)N1CCOCC1)c1ccc(OC)cc1`, the inhibition is inactive: -2.12%.

For `COc1ccccc1OP(=O)(Nc1ccc(C)cn1)Oc1ccccc1OC`, the inhibition was inactive: 1.42%.

With `CN1CCCC(OC(=O)C(c2ccccc2)c2ccccc2)C1` (centres undefined), the inhibition was inactive: 0.13%.

`Clc1ccc(Cl)c(NC2=NCC(CBr)S2)c1` (centres undefined): the inhibition is inactive: 14.3%.

Consider `NC(=O)c1cc([N+](=O)[O-])cc([N+](=O)[O-])c1N`, for which the inhibition was inactive: 5.26%.

Take `Cc1ccc(N/C(=N/P(=O)(N2CCOCC2)N2CCOCC2)N2CCOCC2)cc1`: the inhibition is inactive: 6.77%.

Turning to `CC(C)CC(=O)NC(Sc1ccc(Cl)cc1)C(Cl)(Cl)Cl` (centres undefined), the inhibition is inactive: 3.87%.

Turning to `Oc1ccccc1CNc1ccccn1`, the inhibition was inactive: 11.3%.

In the case of `O=C(NC(Sc1ccncn1)C(Cl)(Cl)Cl)c1ccccc1` (centres undefined), the inhibition was inactive: 2.67%.

Turning to `Cc1c2non([O-])c-2c(C)[n+](=O)[n+]1[O-]`, the inhibition is inactive: 1.06%.

As for `Cc1cc(SC(NC(=O)c2ccc(F)cc2)C(Cl)(Cl)Cl)ncn1` (centres undefined), the inhibition was inactive: 1.08%.

For `CCOP(=O)(Nc1ccccc1)OCC`, the inhibition was inactive: 0.87%.

Regarding `CCN(N=Nc1nonc1N)c1nonc1N`, the inhibition is inactive: 6.67%.
